Values joined by “and” are separate entries in the source; they are usually repeats but may differ in a detail not shown here. Equal values may be shown once.
Key:
[1] = system: SNU16 cells; assay: Inhibition of proliferation of SNU16 cells (CCK-8); details: 72 h
[2] = biological target: FGFR1 kinase domain recombinant protein (Homo sapiens (Human), UniProt P11362); assay: Inhibition of receptor tyrosine kinase FGFR1 activity (ELISA); type: biochemical

Chains of the proteins cited; added tags and fusions are not shown. Residues count along the entry.
UniProt P11362, 478-767 limits assumed: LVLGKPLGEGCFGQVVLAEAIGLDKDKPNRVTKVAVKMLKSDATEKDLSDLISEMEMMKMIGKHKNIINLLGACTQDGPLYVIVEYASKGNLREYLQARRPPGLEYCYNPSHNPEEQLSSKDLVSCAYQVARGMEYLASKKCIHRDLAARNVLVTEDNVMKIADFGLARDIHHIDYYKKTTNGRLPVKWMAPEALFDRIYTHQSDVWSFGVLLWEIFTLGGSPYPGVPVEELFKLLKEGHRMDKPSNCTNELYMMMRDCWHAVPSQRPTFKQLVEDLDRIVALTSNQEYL

Structure (SMILES) | Inhibition ratio (%) ([1]; 10 nM) | Inhibition ratio (%) ([1]; 100 nM) | Inhibition ratio (%) ([1]; 1000 nM) | IC50 [2] | Inhibition ratio (%) @ 0.1 μM [2]
C=CC(=O)Nc1ccc(C(=O)Nc2cc(Oc3ccc4c(C(=O)NC)cccc4c3)ccn2)cc1 | 27.8% and 24.6% | 28.5% and 25.9% | 43.5% and 38.9% | < 100 nM | 78%
C=CC(=O)Nc1cccc(C(=O)Nc2cc(Oc3ccc4c(C(=O)NC)cccc4c3)ccn2)c1 |  |  |  | < 100 nM | 84%
